# Ab-14 heavy chain CDR variants: yeast mating affinities

Values reported by Li et al. 2023, doi:10.1038/s41467-023-39022-2 (FLAb copy).

The target is the same throughout: PDVDLGDISGINAS, from the HR2 region of SARS-CoV-2 spike.

Parent scFv Ab-14: VH joined to VL by a (GGGGS)3 linker. Changes lie in the heavy chain CDRs alone.
VH: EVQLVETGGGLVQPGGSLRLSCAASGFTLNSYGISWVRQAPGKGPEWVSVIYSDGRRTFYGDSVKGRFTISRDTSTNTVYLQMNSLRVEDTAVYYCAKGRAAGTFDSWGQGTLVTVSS
VL: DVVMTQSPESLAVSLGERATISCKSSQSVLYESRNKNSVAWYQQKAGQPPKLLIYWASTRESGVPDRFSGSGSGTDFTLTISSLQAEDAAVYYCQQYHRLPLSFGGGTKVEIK

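The parent was found by panning a naive human phage display library on the peptide. Designed CDR sequences, proposed from the first random library and measured here. Group labels follow the data file (Ctrl: baseline library sampled from a position-specific scoring matrix, with some repeated check sequences; Rand: our label for a block that the file lists under HC and that is probably the random mutants of the ten best first-round binders; En: ensemble of fine-tuned language models; GP: Gaussian process model; GPLM: also part of the Gaussian process libraries; HC: hill climbing; Gen: genetic algorithm; Gibbs: Gibbs sampling; a sequence that several methods proposed may carry one label only). Affinity was read by AlphaSeq, a pooled yeast mating assay with surface-displayed partners. Mating (16 h, 30 °C) was followed by selection of diploids and sequencing of their barcodes. Scores were corrected for input abundance and mapped to Kd with protein pairs of known affinity run in the same pool. There are six technical replicates.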

Variants are written as CDR1, CDR2 and CDR3 of the heavy chain (limits as in the source). Parent: GFTLNSYGIS, VIYSDGRRTFYGDSVK, GRAAGTFDS. Affinities are written as log10 Kd with Kd in nM; a lower number is a better binder. The mean shown is taken over the replicates in which the pair was detected. "nd" means that the variant was in the library but no mating with the target was seen in any replicate; the authors take this as a sign of poor binding, and no number exists.

| CDR-H1 | CDR-H2 | CDR-H3 | group | mean log10 Kd (nM) | seen in |
|---|---|---|---|---|---|
| GFGLNSYGIS | VIYSDGRRTFYADSVK | GHVAGTFDS | GP_Gibbs | 0.71 | 6/6 |
| GFTLNSYGIS | VIYSDGRRTQYHDSVK | GGAAVTADL | Ctrl | nd | 0/6 |
| GFWLNDYGIS | VIYSDGRRTFYIDSVK | GQAAGTFDS | GPLM_HC | 1.30 | 5/6 |
| GETLNSYGIS | VIYSDGRRTFYGDSVK | GRAAGTFDS | Ctrl | 0.87 | 3/6 |
| GFKLQDYGIS | VIYADGVRYAFQNSVK | GQIAGTFNS | En_Gibbs | 2.87 | 3/6 |
| GFTLASYGIS | VIYSDGRRTFYSDSVK | GRAAGTFDS | Ctrl | 1.64 | 6/6 |
| GFDLNEYGIS | VIYADGQRTAYADSVK | GNVAGTFDA | En_Gen | -0.75 | 6/6 |
| GFTLNEYGKS | VIYSDGRRTFYTMSVK | GRFAGTFDS | Rand | nd | 0/6 |
| GFSLDEYGIS | VIYADGRRTFYQDDVK | GNVAGTFDK | En_HC | -0.29 | 6/6 |
| GFDLNSYGIS | VIYSDGRRTFYGDMVK | GQTAGTFDS | GP_Gen | 1.12 | 6/6 |
| GFDLNEYGIS | VIYADGRRTFYIDSVK | GEQAGTFDS | En_HC | -0.57 | 6/6 |
| GFTLNSYGIS | VIYSDGMRTFYGDSVK | GRAAGRFDS | Ctrl | nd | 0/6 |
| GFDLDEYGIS | VIYADGVRTAYADDVK | GENAGTFDV | En_Gen | -0.09 | 6/6 |
| GFTLNKYGIS | VIYSDGRRTFYGDSVR | GRAAGTFDS | Ctrl | 1.74 | 1/6 |
| GFDLNSYGIS | VIYSDGRRTFYGDKVK | GWTAGTFDS | GP_Gibbs | 0.38 | 5/6 |
| GFSLNSYGIS | VIYSDGRRTFYGDSVK | GQAAGTFDQ | GPLM_Gen | 0.97 | 6/6 |
| GKSLDEYGIS | VIYADGRSRAYADDVK | GNDGGGKDL | En_Gibbs | 0.65 | 1/6 |
| GFDLNEYGIS | VIYADGKRTAYANSVK | GEVAGTFDI | En_Gen | -0.46 | 6/6 |
| GFDLEDYGIS | VIYADGRRTAYADSVK | GNNAGTFDV | En_Gen | -0.31 | 6/6 |
| GFTLNEYGIS | VIYSDGRRTFYGDSVK | GRAALTFDS | Ctrl | 1.41 | 4/6 |
| GRTLNSYGIS | VIYSDLRRTFYGDSVK | GRAAGNFDS | Ctrl | nd | 0/6 |
| GFTLNDYGIS | VIYSDGRRTFYKDSVK | GRAAGTFWS | GP_HC | nd | 0/6 |
| GFTLNSYGIS | VIYSDGRRTFYGDSVK | IRNAGTFDS | Ctrl | 3.29 | 1/6 |
| GQDLNEYGIS | VIYADGIRTAYAISVK | GYHGSQFDI | En_Gibbs | nd | 0/6 |
| GFYLNSYGIS | VIYSDGRRTFYDDSVK | GQAAGTFDS | GPLM_HC | 1.80 | 1/6 |
| GFNLDEYGIS | VIYADGMRTFYADSVK | GEHAGTFDT | En_HC | 0.00 | 6/6 |
| GFDLEEYGIS | VIYADGRRTAYSDSVK | GEAAGTFDV | En_HC | 0.27 | 6/6 |
| GFTLMSYGIS | VIYSDGIRTFYQDSVK | GRAAGTFDS | Ctrl | 2.73 | 1/6 |
| GFDLNEYGIS | VIYADGSRTAYADSVK | GNQAGTFDL | En_Gen | -0.38 | 6/6 |
| GFTLMSYGIS | VIYSDGRRTFYGDSVR | GRAAGTFDP | Ctrl | nd | 0/6 |
| GTTLNSYFIS | VIYSDGRRTFHDDSVK | GQLAGDFDS | Rand | nd | 0/6 |
| GFDLNEYGIS | VIYADGMRSFYADNAK | GNAGIFAEV | En_Gibbs | nd | 0/6 |
| GSDLNEYGIS | VIYADGKRSYYTDAVK | GGYNIGASV | En_Gibbs | nd | 0/6 |
| GFNLNEYGIS | VIYADGRRTFYSDSVK | GEVAGTFDV | En_HC | -0.59 | 6/6 |

Further variants, results first:

| mean log10 Kd (nM) | seen in | CDR-H1 | CDR-H2 | CDR-H3 | group |
|---|---|---|---|---|---|
| 0.33 | 6/6 | GFALNEYGIS | VIYSDGRRTFYQDSVK | GRTAGTFDS | GP_Gibbs |
| -1.90 | 4/6 | GFQLNEYGIS | VIYSDGRRTFYADSVK | GRAAGTFDT | GP_Gibbs |
| 3.00 | 1/6 | GFDIQDYGIS | VIYADGSRTAYVNSVK | GEQGATLDV | En_Gibbs |
| nd | 0/6 | GFTLNSYGIS | VIYSDGRRTAYGDSVK | ARAAGTFDK | Ctrl |
| -0.27 | 6/6 | GFDLNEYGIS | VIYADGMRTAYSDSVK | GETAGTFDL | En_Gen |
| nd | 0/6 | GFDLQEYGIS | VIYADGSRTAYVQNVK | GLTLDSYVF | En_Gibbs |
| 0.35 | 3/6 | GFDLEDYGIS | VIYADGKRTQYAQKFK | GTIGGTFVD | En_Gibbs |
| nd | 0/6 | GFPLNSYGIS | VIYSDGRRTFYGDSVK | GRHAGNKDS | Ctrl |
| -0.97 | 3/6 | GFDLNEYGIS | VIYADGMRTAYADDVK | GQNAGTFDI | En_Gen |
| nd | 0/6 | GFNLDEYGIS | VIYADGVRTAYVDKVK | GFGQVLSLI | En_Gibbs |
| nd | 0/6 | GFTLNSYGIS | VIYSDGKRCFYGDSVK | GRPAGTFDS | Ctrl |
| -0.13 | 6/6 | GFNLNEYGIS | VIYADGVRTFYSDSVK | GEAAGTFDV | En_HC |
| 0.32 | 6/6 | GFELNSYGIS | VIYSDGRRTFYDDSVK | GMLAGTFDS | GP_HC |
| -0.01 | 6/6 | GFDLNSYGIS | VIYSDGRRTFYQDSVK | GTAAGTFDS | GPLM_Gibbs |
| nd | 0/6 | GFDLNEYGIS | VIYADGMRSALINAVK | GTSSGTVIA | En_Gibbs |
| nd | 0/6 | GFTLNDYGIS | VIYSDGRRTFYGDNVK | GRAAGYFVS | Ctrl |
| 0.25 | 6/6 | GFELDEYGIS | VIYADGRRTFYADSVK | GNVAGTFDQ | En_HC |
| nd | 0/6 | GFDLDEYGVS | VIYADGIRTKYADSVK | GEVGVFYFQ | En_Gibbs |
| nd | 0/6 | GFTLDSYGIL | VIYSDGRRPFYGDSVK | GRAAGTALS | Rand |
| -0.40 | 6/6 | GFDLNSYGIS | VIYSDGRRTFYGDSVK | GVTAGTFDS | GP_Gen |
| 0.03 | 5/6 | GFTLNSYGIS | VIYSDGRRTFYDDSVK | GVNAGTFDS | GP_HC |
| -0.45 | 1/6 | GFDLNEYGIS | VIYADGMRTAYTDSVK | GETAGTFDI | En_Gen |
| 1.03 | 1/6 | GFTLEWYGIS | VIYSDGRRTFYADSVK | GRAAGTFDS | GP_HC |
| 2.21 | 1/6 | GFDLMEYGIS | VIYADGVRTAYLDQVK | GEEGGALYT | En_Gibbs |
| -0.31 | 6/6 | GFGLNSYGIS | VIYSDGRRTFYADSVK | GKVAGTFDS | GP_Gibbs |
| 0.28 | 6/6 | GFTLNSYGIS | VIYSDGRRTFYSDSVK | GMVGGTFDS | GPLM_HC |
| -0.07 | 6/6 | GFDLNEYGIS | VIYADGQRTAYADSVK | GNAAGTFDV | En_Gen |
| nd | 0/6 | GHTLNSYGIS | VIYSDGMRTFYGDQVK | QRVAWTFPS | Ctrl |
| 0.57 | 6/6 | GFDLDEYGIS | VIYADGKRTAYSDSVK | GNNAGTFDI | En_Gen |
| -0.52 | 6/6 | GFDLNEYGIS | VIYADGIRTFYADSVK | GNAAGTFDL | En_HC |
| 0.20 | 6/6 | GFTLNEYGIS | VIYSDGRRTFYDDSVK | GRQAGTFDS | GP_HC |
| 0.93 | 3/6 | GFTLNSYGIS | VIYSDGRRTFYDDSVK | GQLAGTFDR | GPLM_HC |
| -0.25 | 6/6 | GFDLNEYGIS | VIYADGRRTQYIDSVK | GNEAGTFDK | En_HC |
| nd | 0/6 | GFHLNDYGIS | VIYSDGRRTFYIDSVK | GRCAGTFDS | GP_HC |

The closing 11 entries, repeated:

| CDR-H1 | CDR-H2 | CDR-H3 | group | mean log10 Kd (nM) | seen in |
|---|---|---|---|---|---|
| GFDLMEYGIS | VIYADGVRTAYLDQVK | GEEGGALYT | En_Gibbs | 2.21 | 1/6 |
| GFGLNSYGIS | VIYSDGRRTFYADSVK | GKVAGTFDS | GP_Gibbs | -0.31 | 6/6 |
| GFTLNSYGIS | VIYSDGRRTFYSDSVK | GMVGGTFDS | GPLM_HC | 0.28 | 6/6 |
| GFDLNEYGIS | VIYADGQRTAYADSVK | GNAAGTFDV | En_Gen | -0.07 | 6/6 |
| GHTLNSYGIS | VIYSDGMRTFYGDQVK | QRVAWTFPS | Ctrl | nd | 0/6 |
| GFDLDEYGIS | VIYADGKRTAYSDSVK | GNNAGTFDI | En_Gen | 0.57 | 6/6 |
| GFDLNEYGIS | VIYADGIRTFYADSVK | GNAAGTFDL | En_HC | -0.52 | 6/6 |
| GFTLNEYGIS | VIYSDGRRTFYDDSVK | GRQAGTFDS | GP_HC | 0.20 | 6/6 |
| GFTLNSYGIS | VIYSDGRRTFYDDSVK | GQLAGTFDR | GPLM_HC | 0.93 | 3/6 |
| GFDLNEYGIS | VIYADGRRTQYIDSVK | GNEAGTFDK | En_HC | -0.25 | 6/6 |
| GFHLNDYGIS | VIYSDGRRTFYIDSVK | GRCAGTFDS | GP_HC | nd | 0/6 |

Of ten entries with the parent sequence, four were seen in most replicates (averages 0.34 to 2.37), three in one and three in none, so single entries are noisy. A sequence measured in both rounds can read differently, since the two assays cover different ranges. In the paper, a design with two or fewer of six values counts as a poor binder. Three control strains display no target. For all heavy chain designs, 1% of the pairings with them gave a signal, with a median of 2.08 and one signal in twenty below 0.84, so weak values seen in few replicates may be background.